Measurements as given in PubChem BioAssay AID2029 (NMMLSC, 2009).
This is a selection; strong and weak results do not stand in their true shares. Calls of active or inactive are those of the source.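 Rule for the calls: active = GFP response relative to DMSO above a set limit, near the screen mean plus 3 SD (cut at about 150% in these data); inconclusive = Fewer than 70 cells measured for a yeast strain; inactive = the rest.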

Assay: TOR pathway RTG branch CIT2 reporter changes – S. cerevisiae, GFP fusion, multiplex flow cytometry, MLPCN library, primary screen (AID 2029);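 note: ratio of well median GFP fluorescence to mean of DMSO wells on the plate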
Settings: S. cerevisiae CIT2-GFP strain, 3 h, at 10 µM, hits give high values, 100 means same as DMSO wells
With CCCOc1ccc(C(=O)NCC2(N(C)C)CCCCC2)cc1OC the GFP response vs DMSO was inactive: 88.2%. With O=C(NCC1(N2CCCCC2)CCCCC1)c1cncc(Br)c1 the GFP response vs DMSO was inactive: 112%. For CN1CCC(Nc2cccc(F)c2)CC1, the GFP response vs DMSO was inactive: 107%. For COc1cc(OC)c(C(=O)NCC2(N(C)C)CCCCC2)cc1OC, the GFP response vs DMSO was inactive: 98.4%. For O=C(NCC1(N2CCOCC2)CCCCC1)c1cc(F)c(F)cc1Cl, the GFP response vs DMSO was inactive: 93.3%. With CC(C)c1ccc(NC2CCN(C(=O)OC(C)(C)C)CC2)cc1 the GFP response vs DMSO was inactive: 97.5%. For COc1ccc(CN(CCCl)CCCl)cc1Cl, the GFP response vs DMSO was inactive: 92.6%. For CN(C)c1cccc(C(=O)NCC2(N3CCCCC3)CCCCC2)c1, the GFP response vs DMSO was inactive: 106%. For COc1cc(C(=O)NCC2(N3CCCCC3)CCCCC2)ccc1OC(F)F, the GFP response vs DMSO was inactive: 98.8%. With O=C(NCC1(N2CCOCC2)CCCCC1)c1cc(=O)[nH]c2ccccc12 the GFP response vs DMSO was inactive: 93.4%. With CN1CCN(CCOC(=O)C(O)(c2ccccc2)c2ccccc2)CC1 the GFP response vs DMSO was inactive: 102%. For COc1ccc(NC2CCN(C(=O)OC(C)(C)C)CC2)cc1, the GFP response vs DMSO was inactive: 98.8%. With O=C(NCC1(N2CCCCC2)CCCCC1)c1cccc(C(F)(F)F)c1 the GFP response vs DMSO was inactive: 108%. For CCN1CCC(Nc2ccc(Cl)cc2)CC1, the GFP response vs DMSO was inactive: 102%. In the case of N#CC1(Nc2ccccc2)CCN(CCc2ccccc2)CC1, the GFP response vs DMSO was inactive: 114%. For O=C(NCC1(N2CCCCC2)CCCCC1)c1cccc([N+](=O)[O-])c1, the GFP response vs DMSO was inactive: 112%. With O=C(NCC1(N2CCCCC2)CCCCC1)c1ccc(OC(F)F)cc1 the GFP response vs DMSO was inactive: 104%. With COc1cc(C(=O)NCC2(N(C)C)CCCCC2)ccc1OC(F)F the GFP response vs DMSO was inactive: 84.8%. With CCOC(=O)N1CCC(Nc2cccc(C)c2)CC1 the GFP response vs DMSO was inactive: 107%. With Cc1ccc(OCC(C)C)c(CN(CCCl)CCCl)c1 the GFP response vs DMSO was inactive: 102%. With O=C(NCC1(N2CCCCC2)CCCCC1)c1ccc(F)cc1 the GFP response vs DMSO was inactive: 97%. With COc1ccc(NC2CCN(CCc3ccccc3)CC2)c(OC)c1 the GFP response vs DMSO was inactive: 107%. In the case of CCOC(=O)N1CCC(Nc2ccc(F)cc2)CC1, the GFP response vs DMSO was inactive: 102%. For CCOc1ccc(C)cc1CN(CCCl)CCCl, the GFP response vs DMSO was inactive: 93.9%. With O=C(OC1CN2CCC1CC2)C1c2ccccc2Oc2ccccc21 (stereo not given) the GFP response vs DMSO was inactive: 102%. For O=C(NCC1(N2CCCCC2)CCCCC1)c1ccc(Cl)s1, the GFP response vs DMSO was inactive: 89.9%. In the case of N#CC1(Nc2ccccc2)CCN(Cc2ccccc2)CC1, the GFP response vs DMSO was inactive: 105%. With COc1ccc(Cl)cc1C(=O)NCC1(N2CCOCC2)CCCCC1 the GFP response vs DMSO was inactive: 95.9%. With CCOC(=O)N1CCC(Nc2ccc(OC)cc2)CC1 the GFP response vs DMSO was inactive: 104%. With O=C(NCC1(N2CCCCC2)CCCCC1)c1ccc(Cl)nc1 the GFP response vs DMSO was inactive: 99.3%. For Cc1cc(C)cc(N(C(=O)c2ccccc2)C2CCN(C(=O)OC(C)(C)C)CC2)c1, the GFP response vs DMSO was inactive: 93.7%. For O=C(NCC1(N2CCOCC2)CCCCC1)c1cc2ccccc2o1, the GFP response vs DMSO was inactive: 100%. In the case of CSc1ccccc1C(=O)NCC1(N2CCCCC2)CCCCC1, the GFP response vs DMSO was inactive: 94.4%. In the case of COc1ccc(C(=O)NCC2(N3CCCCC3)CCCCC2)cc1, the GFP response vs DMSO was inactive: 102%. With COc1ccc(C(=O)NCC2(N3CCCCC3)CCCCC2)c(OC)c1OC the GFP response vs DMSO was inactive: 89.7%. In the case of O=C(NCC1(N2CCCCC2)CCCCC1)c1ccc(=O)[nH]c1, the GFP response vs DMSO was inactive: 97.3%. For O=C(NCC1(N2CCCCC2)CCCCC1)c1cccs1, the GFP response vs DMSO was inactive: 105%. With CN1CCC(Nc2ccc(Cl)cc2)CC1 the GFP response vs DMSO was inactive: 103%. In the case of CCCOc1ccc(C)cc1CN(CCCl)CCCl, the GFP response vs DMSO was inactive: 92.7%. In the case of COc1cc(OC)cc(C(=O)NCC2(N3CCOCC3)CCCCC2)c1, the GFP response vs DMSO was inactive: 95.3%. With COc1cccc(C(=O)N(c2cc(C)cc(C)c2)C2CCN(C(=O)OC(C)(C)C)CC2)c1 the GFP response vs DMSO was inactive: 96.9%. In the case of CCC(CO)(C(=O)OC1CN2CCC1CC2)c1ccccc1 (stereo not given), the GFP response vs DMSO was inactive: 105%. In the case of CC(C)(C)OC(=O)N1CCC(Nc2ccccc2)CC1, the GFP response vs DMSO was inactive: 85.4%. For O=C(O)C1(Nc2ccccc2)CCN(Cc2ccccc2)CC1, the GFP response vs DMSO was inactive: 108%. With CCCOc1ccc(C(=O)NCC2(N(C)C)CCCCC2)cc1 the GFP response vs DMSO was inactive: 99.9%. For CCOc1ncccc1C(=O)NCC1(N2CCOCC2)CCCCC1, the GFP response vs DMSO was inactive: 98.4%. With CN1CCC(Nc2ccc(F)c(Cl)c2)CC1 the GFP response vs DMSO was inactive: 106%. In the case of O=C(NCC1(N2CCCCC2)CCCCC1)c1ccco1, the GFP response vs DMSO was inactive: 99.9%. In the case of CN(C)c1ccc(C(=O)NCC2(N3CCCCC3)CCCCC2)cc1, the GFP response vs DMSO was inactive: 101%. For CCN1CCC(Nc2cccc(F)c2)CC1, the GFP response vs DMSO was inactive: 95.3%. For Cc1ccc(C(=O)NCC2(N3CCCCC3)CCCCC2)o1, the GFP response vs DMSO was inactive: 101%. With Fc1ccccc1NC1CCN(Cc2ccccc2)CC1 the GFP response vs DMSO was inactive: 98.1%. For COc1cc(OC)cc(C(=O)NCC2(N3CCCCC3)CCCCC2)c1, the GFP response vs DMSO was inactive: 102%. With CN(C)C1(CNC(=O)c2cccc(C#N)c2)CCCCC1 the GFP response vs DMSO was inactive: 109%. For c1ccc(CN2CCC(Nc3ccccc3)CC2)cc1, the GFP response vs DMSO was inactive: 99.6%. For CCCN1CCC(Nc2cc(OC)cc(OC)c2)CC1, the GFP response vs DMSO was inactive: 104%. With N#Cc1ccc(C(=O)NCC2(N3CCCCC3)CCCCC2)cc1 the GFP response vs DMSO was inactive: 114%. With CC(C)(C)OC(=O)N1CCC(N(C(=O)c2ccccc2)c2ccc(Cl)cc2)CC1 the GFP response vs DMSO was inactive: 105%. For O=C(OC1CN2CCC1CC2)C1c2ccccc2C=Cc2ccccc21 (stereo not given), the GFP response vs DMSO was inactive: 106%. In the case of CCc1cc(C(=O)NCC2(N3CCCCC3)CCCCC2)sc1C, the GFP response vs DMSO was inactive: 94.4%. In the case of CCOC(=O)N1CCC(Nc2ccc(C)cc2)CC1, the GFP response vs DMSO was inactive: 100%. With N/C(=N\O)c1c(N)no[n+]1[O-] the GFP response vs DMSO was inactive: 99.4%. In the case of COc1ccc(C(=O)NCC2(N3CCOCC3)CCCCC2)cc1OC, the GFP response vs DMSO was inactive: 95.1%. In the case of COc1cc(C(=O)NCC2(N3CCOCC3)CCCCC2)cc(OC)c1C, the GFP response vs DMSO was inactive: 103%. In the case of O=C(NCC1(N2CCOCC2)CCCCC1)c1cc(Br)ccc1Cl, the GFP response vs DMSO was inactive: 92.8%.
